These results are taken from patent publication US4013774A (priority 1975, dated 1977).

The test system of experiment [1] is American Cockroach (Periplaneta americana L.). As to the kind of experiment: American cockroach spray mortality test (24 hours). To be noted: mortality after 24 hours.
In experiment [2] the test system is Aphids (Aphis gossypii Glover). As to the kind of experiment: Aphid leaf-dip mortality test (cucumber leaves, 24 hours). To be noted: mortality after 24 hours.
Experiment [3] relates to Flour Beetle (Tribolium confusum DuVal). The experiment in a line: Flour beetle mortality test on treated wheat grain (one week). To be noted: mortality after one week exposure, 10080 min.

Molecules are shown by their SMILES.

`CN(SC(Cl)(Cl)C(Cl)Cl)C(=O)Oc1cccc2c1OC(C)(C)C2` gave a Cockroach, mortality, 16 ppm in experiment [1] (16 ppm) of 7%. In addition, the Cockroach, mortality, 100 ppm in experiment [1] (100 ppm) amounted to 67%. In experiment [2] (0.64 ppm), this molecule came in with an Aphids, mortality, 0.64 ppm of 97%. The Aphids, mortality, 4 ppm in experiment [2] (4 ppm) stood at 98%. This molecule also showed a Flour Beetle, mortality, 5 ppm in experiment [3] of 100%.
